Measured values reported in PubChem BioAssay AID1053197 (The Scripps Research Institute Molecular Screening Center, 2014).
The entries are a selection whose mix differs from that of the whole data set. Some results for these compounds are left out of this collection, so the calls shown say nothing about other tests. The source made the active and inactive calls.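 The calls were made as follows: active = inhibition above a cutoff: mean of compounds within the control limits plus 3 SD of those (cut at about 17% in these data); inactive = the rest.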

Chains of the proteins cited; added tags and fusions are not shown.
UniProt Q9HAT2, whole entry: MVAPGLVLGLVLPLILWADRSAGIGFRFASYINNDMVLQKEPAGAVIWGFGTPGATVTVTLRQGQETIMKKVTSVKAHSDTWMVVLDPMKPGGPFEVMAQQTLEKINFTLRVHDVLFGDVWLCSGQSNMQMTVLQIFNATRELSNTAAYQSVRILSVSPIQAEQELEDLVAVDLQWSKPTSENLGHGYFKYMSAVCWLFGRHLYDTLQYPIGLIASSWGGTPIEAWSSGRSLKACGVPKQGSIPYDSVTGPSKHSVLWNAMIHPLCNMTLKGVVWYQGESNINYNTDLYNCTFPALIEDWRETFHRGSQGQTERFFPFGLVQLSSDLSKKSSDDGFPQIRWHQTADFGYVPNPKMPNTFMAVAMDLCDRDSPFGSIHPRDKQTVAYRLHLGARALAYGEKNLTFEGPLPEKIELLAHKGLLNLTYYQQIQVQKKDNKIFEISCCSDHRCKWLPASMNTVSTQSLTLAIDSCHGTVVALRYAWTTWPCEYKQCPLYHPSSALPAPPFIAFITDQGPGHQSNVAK

Molecular target: Sialate O-acetylesterase (Homo sapiens) (UniProt Q9HAT2)
Experiment: blockers of sialate O-acetylesterase activity-probe labeling – biochemical, fluorescence polarization, FP-Rh probe, 1536-well HTS, primary screen (AID 1053197);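 also: 0% = plate median of compound wells and 100% = probe without SIAE protein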
Details: SIAE FP-Rh probe binding, at 9.66 µM, active compounds read high

| SMILES | inhibition |
| --- | --- |
| CN(C)c1cccc(C(=O)NCC2(N(C)C)CCCCC2)c1 | inactive: 3.18% |
| CC(C)Oc1ccc(C(=O)NCC2(N(C)C)CCCCC2)cc1 | inactive: 0.29% |
| O=C(OCCN1CCCC1)C(O)(c1ccccc1)c1ccccc1 | inactive: 7.68% |
| COc1ccc(Br)c(C(=O)NCC2(N3CCCCC3)CCCCC2)c1 | inactive: 1.55% |
| C=C(C)C#CC(O)(C(=O)OC1CCN(C)CC1)c1ccccc1 (stereo unspecified) | inactive: 1.68% |
| O=C(OC1CN2CCC1CC2)C(CO)(c1ccccc1)c1ccccc1 (stereo unspecified) | inactive: 2.86% |
| O=C(NCC1(N2CCCCC2)CCCCC1)c1cccc(Cl)c1 | inactive: -0.13% |
| COc1cccc(C(=O)NCC2(N3CCCCC3)CCCCC2)c1 | inactive: -3.82% |
| COc1ccc(Cl)cc1C(=O)NCC1(N(C)C)CCCCC1 | inactive: -5.81% |
| COc1cc(C(=O)NCC2(N(C)C)CCCCC2)c([N+](=O)[O-])cc1OC | inactive: 4.97% |
| CN(C)C1(CNC(=O)c2ccc(Br)cc2)CCCCC1 | inactive: -2.68% |
| CCN1CCCC(OC(=O)C2(O)c3ccccc3C=Cc3ccccc32)C1 (stereo unspecified) | inactive: -1.19% |
| Cc1cc(C(=O)NCC2(N3CCCCC3)CCCCC2)ccc1[N+](=O)[O-] | inactive: -4.55% |
| O=C(NCC1(N2CCCCC2)CCCCC1)c1cccc(Br)c1 | inactive: -11.8% |
| COc1ccc(C(=O)NCC2(N(C)C)CCCCC2)cc1 | inactive: 2.54% |
| C=CCN1CCN(CCOC(=O)C(O)(c2ccccc2)c2ccccc2)CC1 | inactive: -3.2% |
| O=C(NCC1(N2CCCCC2)CCCCC1)c1cc(F)c(F)cc1Cl | inactive: -2% |
| Cc1ccccc1C(=O)NCC1(N2CCCCC2)CCCCC1 | inactive: -3.65% |
| CN(C)c1ccc(C(=O)NCC2(N(C)C)CCCCC2)cc1 | inactive: 4.77% |
| CN(C)C1CCCC1OC(=O)C(O)(c1ccccc1)c1ccccc1 (stereo unspecified) | inactive: 2.47% |
| Cc1ccc(C(=O)NCC2(N3CCCCC3)CCCCC2)cc1 | inactive: -0.44% |
| CC(C)N1C(=O)CC2(CCN(CCOC(=O)C(O)(c3ccccc3)c3ccccc3)CC2)C1=O | active: 19.6% |
| CCN(CC)CC(C)C(C)OC(=O)C(O)(c1ccccc1)c1ccccc1 (stereo unspecified) | inactive: 3.79% |
| COc1cc(SC)ccc1C(=O)NCC1(N(C)C)CCCCC1 | inactive: -2.83% |
| CN1[C@@H]2CC[C@H]1CC(OC(=O)C(O)(c1ccccc1)c1ccccc1)C2 (stereo partly specified) | inactive: -3.43% |
| O=C(NCC1(N2CCCCC2)CCCCC1)c1cc([N+](=O)[O-])ccc1Cl | inactive: -0.38% |
